Protein sequences, listed by entry. Tags and fused reporters are not part of them.
UniProt P22460, whole entry: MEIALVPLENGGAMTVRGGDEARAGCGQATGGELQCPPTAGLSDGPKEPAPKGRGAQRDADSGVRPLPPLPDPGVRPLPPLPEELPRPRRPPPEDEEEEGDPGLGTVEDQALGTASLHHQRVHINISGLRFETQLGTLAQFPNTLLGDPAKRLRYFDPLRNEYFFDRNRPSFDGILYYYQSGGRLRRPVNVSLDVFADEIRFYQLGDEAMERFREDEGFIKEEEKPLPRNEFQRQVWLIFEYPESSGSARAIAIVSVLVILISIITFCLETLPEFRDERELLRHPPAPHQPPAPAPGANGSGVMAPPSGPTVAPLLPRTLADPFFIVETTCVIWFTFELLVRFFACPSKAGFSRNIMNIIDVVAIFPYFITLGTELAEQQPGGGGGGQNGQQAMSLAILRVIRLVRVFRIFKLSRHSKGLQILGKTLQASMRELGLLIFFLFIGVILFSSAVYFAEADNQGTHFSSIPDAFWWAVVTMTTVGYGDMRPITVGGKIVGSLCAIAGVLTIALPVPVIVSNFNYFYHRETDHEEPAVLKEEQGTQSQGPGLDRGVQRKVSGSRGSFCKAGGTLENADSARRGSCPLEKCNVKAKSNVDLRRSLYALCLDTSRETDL

In patent publication EP1605976B1, “PHENYLCARBOXYL ACID AMIDES AND IK r CHANNEL INHIBITORS COMBINATION AND THE USE THEREOF FOR TREATING ATRIAL ARRHYTHMIA” (Sanofi-Aventis Deutschland GmbH, priority 2003, dated 2004):

Biological target: Kv1.5-Kanal (Homo sapiens, UniProt P22460)
Conditions: human Kv1.5 in Xenopus oocytes, voltage steps to 0 mV and 40 mV, room temperature, Hill equation

## CCCCS(=O)(=O)Nc1ccccc1C(=O)N[C@H](CC)c1ccc(OC)nc1 [Beispiel 5, 2-(Butyl-1-sulfonylamino)-N-[1(R)-(6-methoxy-pyridin-3-yl)-propyl]-benzamid]
  IC50: 10 µM
